From patent US10562947B2, “Compositions and methods for preventing or treating diseases, conditions or processes characterized by aberrant fibroblast proliferation and extracellular matrix deposition” (MOERAE MATRIX, INC., priority 2011, dated 2020)

How the values were obtained:
Experiment in all cases: Kinase Profiling Assay
Type in all cases: biochemical
Details in all cases: 100 μM peptide
[1] = target: CK1γ1(h) (Homo sapiens, UniProt Q9HCP0)
Experimental: (§1) Every kinase activity measurement was conducted in duplicate.
(§2) In addition to determining the IC50 of the compound, the specificity of MK2 inhibitory peptides was assessed by examining activities of all 266 human kinases available for testing in the Millipore kinase profiling service (Table 1).

[2] = target: CK1γ2(h) (Homo sapiens, UniProt P78368)
Experimental: as §1, §2

[3] = target: CK1γ3(h) (Homo sapiens, UniProt Q9Y6M4)
Experimental: as §1, §2

[4] = target: CK2α2(h) (Homo sapiens, UniProt P19784)
Experimental: as §1, §2

[5] = target: CLK2(h) (Homo sapiens, UniProt P49760)
Experimental: as §1, §2

[6] = target: FGFR1(V561M)(h) (Homo sapiens, UniProt P11362, V561M)
Experimental: as §1, §2

[7] = target: FGFR2(N549H)(h) (Homo sapiens, UniProt P21802, N549H)
Experimental: as §1, §2

[8] = target: Fgr(h) (Homo sapiens, UniProt P09769)
Experimental: as §1, §2

[9] = target: T1, GRK5(h) (Homo sapiens, UniProt P34947)
T1 construct: purchased Millipore
Experimental: as §1, §2

[10] = target: T2, IGF-1R(h) (Homo sapiens, UniProt P08069)
T2 construct: purchased Millipore
Experimental: as §1, §2

[11] = target: T3, JNK1α1(h) (Homo sapiens, UniProt P45983)
T3 construct: purchased Millipore
Experimental: as §1, §2

[12] = target: T4, MKK7β(h) (Homo sapiens, UniProt O14733)
T4 sequence (O14733 1-419): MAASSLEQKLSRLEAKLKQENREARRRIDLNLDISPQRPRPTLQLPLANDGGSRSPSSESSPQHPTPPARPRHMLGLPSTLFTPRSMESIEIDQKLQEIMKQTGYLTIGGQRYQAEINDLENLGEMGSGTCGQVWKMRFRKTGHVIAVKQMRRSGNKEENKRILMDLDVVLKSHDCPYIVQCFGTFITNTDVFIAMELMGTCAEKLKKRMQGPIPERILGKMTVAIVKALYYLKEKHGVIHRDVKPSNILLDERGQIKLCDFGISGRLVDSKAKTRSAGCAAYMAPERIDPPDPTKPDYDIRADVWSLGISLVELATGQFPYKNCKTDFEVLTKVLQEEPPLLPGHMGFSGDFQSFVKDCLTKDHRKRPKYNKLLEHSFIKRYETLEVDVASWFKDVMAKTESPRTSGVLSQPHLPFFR
Experimental: as §1, §2

[13] = target: PAK3(h) (Homo sapiens, UniProt O75914)
Experimental: as §1, §2

[14] = target: PAK6(h) (Homo sapiens, UniProt Q9NQU5)
Experimental: as §1, §2

[15] = target: T5, Plk1(h) (Homo sapiens, UniProt P53350)
T5 construct: purchased Millipore (IC50 Profiler Express service)
Experimental: as §1, §2

[16] = target: Abl(H396P)(h) (Homo sapiens, UniProt P00519, H396P)
Experimental: as §1, §2

[17] = target: Abl(M351T)(h) (Homo sapiens, UniProt P00519, M351T)
Experimental: as §1, §2

[18] = target: Abl(T315I)(h) (Homo sapiens, UniProt P00519, T315I)
Experimental: as §1, §2

[19] = target: T6, Aurora-A(h) (Homo sapiens, UniProt O14965)
T6 sequence (O14965 1-403): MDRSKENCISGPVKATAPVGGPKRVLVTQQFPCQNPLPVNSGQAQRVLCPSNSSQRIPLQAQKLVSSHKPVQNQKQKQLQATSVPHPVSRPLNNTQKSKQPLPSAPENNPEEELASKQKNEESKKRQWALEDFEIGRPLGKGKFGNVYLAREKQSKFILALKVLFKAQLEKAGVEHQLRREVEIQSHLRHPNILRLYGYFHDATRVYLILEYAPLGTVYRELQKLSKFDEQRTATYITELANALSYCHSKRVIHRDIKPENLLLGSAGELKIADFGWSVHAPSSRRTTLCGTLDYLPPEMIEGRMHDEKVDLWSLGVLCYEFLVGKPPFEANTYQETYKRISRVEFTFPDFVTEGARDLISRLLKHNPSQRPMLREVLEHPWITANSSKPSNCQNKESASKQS
Experimental: as §1, §2

[20] = target: T7, HIPK3(h) (Homo sapiens, UniProt Q9H422)
T7 construct: purchased Millipore
Experimental: as §1, §2

[21] = target: T8, JAK2(h) (Homo sapiens, UniProt O60674)
T8 construct: purchased Millipore
Experimental: as §1, §2

[22] = target: Lck(h) (Homo sapiens, UniProt P06239)
Experimental: as §1, §2

[23] = target: PAK5(h) (Homo sapiens, UniProt Q9P286)
Experimental: as §1, §2

[24] = target: T9, PAR-1Bα(h) (Homo sapiens, UniProt Q7KZI7)
T9 sequence (Q7KZI7 1-725 isoform Q7KZI7-4): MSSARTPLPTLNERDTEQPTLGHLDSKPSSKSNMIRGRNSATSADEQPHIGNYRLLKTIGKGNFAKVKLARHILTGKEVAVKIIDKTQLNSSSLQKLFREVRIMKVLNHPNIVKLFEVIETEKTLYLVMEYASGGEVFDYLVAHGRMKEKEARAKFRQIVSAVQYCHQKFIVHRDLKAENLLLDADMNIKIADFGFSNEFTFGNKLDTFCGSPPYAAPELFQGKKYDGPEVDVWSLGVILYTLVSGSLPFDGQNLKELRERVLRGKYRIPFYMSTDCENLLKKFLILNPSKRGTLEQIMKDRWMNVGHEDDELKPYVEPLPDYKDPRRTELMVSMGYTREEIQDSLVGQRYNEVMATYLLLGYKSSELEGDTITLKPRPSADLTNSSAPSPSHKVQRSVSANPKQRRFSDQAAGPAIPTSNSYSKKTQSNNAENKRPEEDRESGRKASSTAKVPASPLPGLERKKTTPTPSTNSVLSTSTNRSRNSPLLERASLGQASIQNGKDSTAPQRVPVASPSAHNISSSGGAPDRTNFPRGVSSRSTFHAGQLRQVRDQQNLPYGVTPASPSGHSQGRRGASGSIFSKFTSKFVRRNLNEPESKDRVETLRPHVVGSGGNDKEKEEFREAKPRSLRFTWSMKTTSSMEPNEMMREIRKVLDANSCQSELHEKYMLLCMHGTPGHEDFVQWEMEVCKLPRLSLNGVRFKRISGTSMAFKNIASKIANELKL
Experimental: as §1, §2

[25] = target: PKA(h) (Homo sapiens, UniProt P17612)
Experimental: as §1, §2

[26] = target: c-RAF(h) (Homo sapiens, UniProt P04049)
Experimental: as §1, §2

HRRIKAWLKKIKALARQLGVAA (Mammalian) [MMI-0500]
CK1γ1(h) % activity [1]: 109% | CK1γ2(h) % activity [2]: 119% | CK1γ3(h) % activity [3]: 114% | CK2α2(h) % activity [4]: 103% | CLK2(h) % activity [5]: 116% | FGFR1(V561M)(h) % activity [6]: 113% | FGFR2(N549H)(h) % activity [7]: 105% | Fgr(h) % activity [8]: 109% | GRK5(h) % activity [9]: 116% | IGF-1R(h) % activity [10]: 117% | JNK1α1(h) % activity [11]: 109% | MKK7β(h) % activity [12]: 102% | PAK3(h) % activity [13]: 102% | PAK6(h) % activity [14]: 107% | Plk1(h) % activity [15]: 104%

KAFAKLAARLYRKALARQLGVAA [MMI-0400]
Abl(H396P)(h) % activity [16]: 105% | Abl(M351T)(h) % activity [17]: 121% | Abl(T315I)(h) % activity [18]: 105% | Aurora-A(h) % activity [19]: 119% | CK1γ1(h) % activity [1]: 116% | CK1γ2(h) % activity [2]: 114% | CK1γ3(h) % activity [3]: 115% | CLK2(h) % activity [5]: 116% | FGFR2(N549H)(h) % activity [7]: 112% | HIPK3(h) % activity [20]: 105% | JAK2(h) % activity [21]: 119% | Lck(h) % activity [22]: 228% | PAK3(h) % activity [13]: 121% | PAK5(h) % activity [23]: 117% | PAR-1Bα(h) % activity [24]: 109% | PKA(h) % activity [25]: 119% | Plk1(h) % activity [15]: 119% | c-RAF(h) % activity [26]: 102%
